{
  "source": "patent US12397036B2",
  "about": "“Peptide exchange protein” (Cambridge Enterprise Limited, priority 2018, dated 2025)",
  "key": {"Her2": {"target": "T1, Her2 (Homo sapiens, UniProt P04626)", "T1 construct": "HeLaM cells which naturally express Her2; endogenous in cells; host or cells: HeLaM, HeLaM+Her2 (over-expressing), HeLaM-Her2-KO (negative control)", "experiment": "Binding of recombinant TAPBPR proteins to HeLaM, HeLaM+Her2 and HeLaM^Her2KO cells"}, "HLA-A2": {"target": "T2, HLA-A2 (Homo sapiens, UniProt P04439, D140Y/D185E/D98H/E176V/E277Q/G131W/G231S/I119V/I121R/I166T/I218V/L300P/L318F/N151K/N90K/P208A/P217A/Q86G/Q94H/R138H/R169H/T345S)", "T2 construct": "expressed in transfected cells; host or cells: HeLaM-HLA-ABC-KO", "experiment": "NLV* and YLL* viral peptide loading on HeLaM-ABC^KO cells -/+ HLA-A2", "assay_type": "cell-based"}, "[1]": {"target": "T3, HLA-A2 on SKBR3 and MCF-7 cells (Homo sapiens, UniProt P04439, D140Y/D185E/D98H/E176V/E277Q/G131W/G231S/I119V/I121R/I166T/I218V/L300P/L318F/N151K/N90K/P208A/P217A/Q86G/Q94H/R138H/R169H/T345S)", "T3 construct": "endogenous in cells; host or cells: SKBR3 and MCF-7", "experiment": "YLL* peptide loading on breast cancer cell lines", "assay_type": "cell-based", "details": "100 nM protein"}},
  "data": [
    {"molecule": "TAPBPR-Her2-scFv: recombinant TAPBPR fused to a scFv specific for Her2; SEQ ID NO: 8 (protein, TAPBPR-Her2scFv) MGTQEGWCLLLCLALSGAAETKPHPAEGQWRAVDVVLDCFLVKDGAHRGALASSEDRARASLVLKQVPVLDDGSLEDFTDFQGGTLAQDDPPIIFEASVDLVQIPQAEALLHADCSGKEVTCEISRYFLQMTETTVKTAAWFMANVQVSGGGPSISLVMKTPRVAKNEVLWHPTLNLPLSPQGTVRTAVEFQVMTQTQSLSFLLGSSASLDCGFSMAPGLDLISVEWRLQHKGRGQLVYSWTAGQGQAVRKGATLEPAQLGMARDASLTLPGLTIQDEGTYICQITTSLYRAQQIIQLNIQASPKVRLSLANEALLPTLICDIAGYYPLDVVVTWTREELGGSPAQVSGASFSSLRQSVAGTYSISSSLTAEPGSAGATYTCQVTHISLEEPLGASTQVVPPERRHVGGGGSGGGGSGGGGSTSADLGSRAMAQVQLVQSGAEVKKPGESLKISCKGSGYSFTSYWIAWVRQMPGKGLEYMGLIYPGDSDTKYSPSFQGQVTISVDKSVSTAYLQWSSLKPSDSAVYFCARHDVGYCSSSNCAKWPEYFQHWGQGTLVTVSSGGGGSGGGGSGGGGSQSVLTQPPSVSAAPGQKVTISCSGSSSNIGNNYVSWYQQLPGTAPKLLIYDHTNRPAGVPDRFSGSKSGTSASLAISGFRSEDEADYYCASWDYTLSGWVFGGGTKLTVLGAAAGGGGS", "values": [
      {"measurement": "binding to HeLaM cells which naturally express Her2, compared to soluble TAPBPR alone", "setting": "Her2", "result": "increased binding"},
      {"measurement": "binding to Her2-deficient HeLaM cells", "setting": "Her2; 100 nM recombinant protein", "result": "no binding at all"},
      {"measurement": "binding to cells over-expressing Her2", "setting": "Her2; HeLaM+Her2", "result": "Very strong binding"},
      {"measurement": "efficiency of NLV* and YLL* loading relative to soluble TAPBPR", "setting": "HLA-A2", "result": "more efficient at loading these peptides than soluble TAPBPR alone"},
      {"measurement": "peptide loading relative to soluble TAPBPR on breast cancer cell lines", "setting": "[1]", "result": "more efficient that soluble TAPBPR"},
      {"measurement": "peptide loading relative to soluble TAPBPR on breast cancer cell lines", "setting": "[1]; listed as TAPBPR-her 2 antibody fusion protein", "result": "superior to the soluble TAPBPR protein alone"}
    ]}
  ]
}
